Test results taken from patent US6593357B1, “Pyrazole compositions useful as inhibitors of ERK” (Vertex Pharmaceuticals Incorporated, priority 2000, dated 2003).

Sequences of proteins named here, by UniProt entry; tags and fusion partners are left off.
UniProt O14965, whole entry: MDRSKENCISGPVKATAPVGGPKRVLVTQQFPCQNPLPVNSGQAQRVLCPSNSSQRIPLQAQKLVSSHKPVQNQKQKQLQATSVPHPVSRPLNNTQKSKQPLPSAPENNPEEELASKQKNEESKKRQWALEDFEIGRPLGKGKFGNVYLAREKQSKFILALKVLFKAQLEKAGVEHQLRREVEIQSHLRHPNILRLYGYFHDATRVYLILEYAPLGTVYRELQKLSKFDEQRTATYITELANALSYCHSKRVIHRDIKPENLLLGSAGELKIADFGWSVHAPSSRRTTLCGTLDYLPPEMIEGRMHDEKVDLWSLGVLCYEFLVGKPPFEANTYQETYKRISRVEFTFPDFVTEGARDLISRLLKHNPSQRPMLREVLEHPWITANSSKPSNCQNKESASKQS

Target: Aurora2 (Homo sapiens, UniProt O14965)
Experiment: Aurora inhibition, standard coupled enzyme assay
Details: read-out: Aurora2 Inhibitory Activity (IC50 class); 40 μM ATP, 30° C.

## CCN(C)C(=O)c1cc(-c2[nH]ncc2-c2ccc3c(c2)OCO3)c[nH]1
  IC50: 5 to 10 µM
